Data: article PMC7479175, “Selection of Potent Inhibitors of Soluble Epoxide Hydrolase for Usage in Veterinary Medicine” (Frontiers in Veterinary Science, 2020)
Like-named read-outs stand apart in the source and are kept apart here.

Protein sequences, listed by entry. Tags and fused reporters are not part of them. Residues count along the entry.
UniProt A0ABI7ZL20, entry or part of it: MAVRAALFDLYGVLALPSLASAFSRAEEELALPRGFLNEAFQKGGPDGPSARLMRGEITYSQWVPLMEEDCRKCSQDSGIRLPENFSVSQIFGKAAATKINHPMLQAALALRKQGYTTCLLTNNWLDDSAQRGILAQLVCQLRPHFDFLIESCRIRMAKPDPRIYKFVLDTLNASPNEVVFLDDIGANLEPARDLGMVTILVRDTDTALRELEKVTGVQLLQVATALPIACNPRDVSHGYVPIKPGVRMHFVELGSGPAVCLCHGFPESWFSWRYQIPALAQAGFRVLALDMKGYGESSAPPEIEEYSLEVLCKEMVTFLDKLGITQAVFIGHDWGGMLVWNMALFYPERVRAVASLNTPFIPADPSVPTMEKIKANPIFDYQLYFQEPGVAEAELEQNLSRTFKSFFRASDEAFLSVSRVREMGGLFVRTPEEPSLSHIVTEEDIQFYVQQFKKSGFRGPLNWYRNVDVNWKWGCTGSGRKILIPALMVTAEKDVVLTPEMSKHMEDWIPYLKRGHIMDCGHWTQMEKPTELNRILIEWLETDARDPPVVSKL
UniProt F7C407, entry or part of it: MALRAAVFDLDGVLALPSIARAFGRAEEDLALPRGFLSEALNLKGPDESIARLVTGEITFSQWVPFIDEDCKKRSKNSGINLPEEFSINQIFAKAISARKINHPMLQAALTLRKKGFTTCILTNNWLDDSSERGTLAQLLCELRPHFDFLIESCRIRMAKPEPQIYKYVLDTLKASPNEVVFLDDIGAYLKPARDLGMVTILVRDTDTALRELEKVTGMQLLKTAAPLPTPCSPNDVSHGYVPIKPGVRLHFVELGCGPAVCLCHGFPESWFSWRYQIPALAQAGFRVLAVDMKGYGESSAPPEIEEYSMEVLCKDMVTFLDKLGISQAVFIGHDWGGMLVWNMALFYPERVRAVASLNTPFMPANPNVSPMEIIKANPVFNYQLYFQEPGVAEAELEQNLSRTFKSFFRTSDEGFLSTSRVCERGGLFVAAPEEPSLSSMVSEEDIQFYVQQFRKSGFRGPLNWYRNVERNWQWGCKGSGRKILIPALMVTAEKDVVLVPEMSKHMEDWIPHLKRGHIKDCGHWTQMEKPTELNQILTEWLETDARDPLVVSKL
UniProt A0A8I3NJL8, 1-556: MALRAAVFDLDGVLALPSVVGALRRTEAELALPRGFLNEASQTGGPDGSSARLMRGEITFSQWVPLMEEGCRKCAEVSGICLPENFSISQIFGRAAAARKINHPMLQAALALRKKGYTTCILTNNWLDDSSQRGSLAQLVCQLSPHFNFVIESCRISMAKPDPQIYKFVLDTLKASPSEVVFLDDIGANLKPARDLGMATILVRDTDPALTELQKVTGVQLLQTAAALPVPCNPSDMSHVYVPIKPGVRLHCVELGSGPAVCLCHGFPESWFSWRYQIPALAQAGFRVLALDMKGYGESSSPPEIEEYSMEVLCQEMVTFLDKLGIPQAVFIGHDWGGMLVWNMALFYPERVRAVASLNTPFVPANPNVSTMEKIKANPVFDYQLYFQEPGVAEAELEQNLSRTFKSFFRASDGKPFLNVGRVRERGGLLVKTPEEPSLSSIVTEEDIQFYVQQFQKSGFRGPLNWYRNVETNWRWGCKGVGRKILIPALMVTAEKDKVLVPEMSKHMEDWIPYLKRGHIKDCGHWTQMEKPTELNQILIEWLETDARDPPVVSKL
UniProt Q6Q2C2, whole entry: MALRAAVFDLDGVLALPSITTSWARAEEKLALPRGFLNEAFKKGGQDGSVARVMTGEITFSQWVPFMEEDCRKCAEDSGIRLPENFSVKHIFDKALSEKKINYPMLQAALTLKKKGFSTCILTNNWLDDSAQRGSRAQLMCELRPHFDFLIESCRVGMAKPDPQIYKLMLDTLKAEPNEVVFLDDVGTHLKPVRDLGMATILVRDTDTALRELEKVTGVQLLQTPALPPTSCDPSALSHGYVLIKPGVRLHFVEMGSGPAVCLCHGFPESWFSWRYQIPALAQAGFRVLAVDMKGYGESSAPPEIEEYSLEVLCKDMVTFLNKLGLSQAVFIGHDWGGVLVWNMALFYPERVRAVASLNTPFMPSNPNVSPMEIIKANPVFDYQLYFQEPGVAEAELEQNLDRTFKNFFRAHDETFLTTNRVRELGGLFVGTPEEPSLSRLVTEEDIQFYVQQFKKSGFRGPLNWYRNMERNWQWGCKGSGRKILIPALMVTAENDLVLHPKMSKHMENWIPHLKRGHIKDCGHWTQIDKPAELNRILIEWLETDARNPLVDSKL

Columns and labels:
[1] = target: T1, Cat sEH (Felis catus, UniProt A0ABI7ZL20); experiment: Secondary screen (kinetic mode), PHOME substrate; type: biochemical; conditions: [I] = 100 nM, secondary kinetic mode screening
[2] = Solubility of inhibitors in different solvents; type: physicochemical; conditions: for solubility at 24 h: thermodynamic from solid, 40°C
Protocol: The un-dissolved compounds were filtered through a 0.22 μm centrifuge filter at 30 or 40°C and the supernatant further diluted 10-fold with methanol. The concentration of t-TUCB in the samples was determined by LC/MS/MS analysis as previously described ([15]).

[3] = target: T1, Cat sEH; experiment: Primary screen (end point) of the sEH inhibitor library, PHOME substrate; type: biochemical; conditions: [I] = 100 nM, primary end-point screening
Protocol: (§1) Primary screening of the library was performed with an inhibitor concentration of 100 nM using PHOME as substrate ([22]). […] The plates were then mixed and incubated at 30°C for 5 min. Across each plate, 30 μL of the working substrate solution (270 μL of 5 mM PHOME solution in DMSO diluted with 3,680 μL of buffer) were added quickly to yield [S]final: 50 μM. Each plate was further incubated at room temperature (horse sEH: 60 min; cat sEH: 45 min; dog sEH: 30 min).

[4] = target: T2, Horse sEH (Equus caballus, UniProt F7C407); experiment: as above; type: biochemical; conditions: [I] = 100 nM, primary end-point screening
Protocol: as §1

[5] = target: T3, Dog sEH (Canis lupus familiaris, UniProt A0A8I3NJL8); experiment: as above; type: biochemical; conditions: [I] = 100 nM, primary end-point screening
Protocol: as §1

[6] = target: T2, Horse sEH; experiment: Secondary screen (kinetic mode), PHOME substrate; type: biochemical; conditions: [I] = 100 nM, secondary kinetic mode screening
[7] = target: T1, Cat sEH; experiment: sEH inhibition potency (IC50), fluorescent assay with CMNPC, partially purified enzyme; type: biochemical; conditions: read-out: Cat sEH IC50; CMNPC ([S]final = 5 μM) as substrate; average ± standard deviation (n = 3)
[8] = target: T3, Dog sEH; experiment: Secondary screen (kinetic mode), PHOME substrate; type: biochemical; conditions: [I] = 100 nM, secondary kinetic mode screening
[9] = target: T4, sEH activity from liver cytosol of Pig (Sus scrofa, UniProt Q6Q2C2); experiment: sEH inhibition potency (IC50), radioactive assay with [3H]t-DPPO, liver cytosol; type: biochemical
T4 construct: The radioactive fluorescent assay was used with the liver crude extracts; from tissue; host or cells: pig liver cytosol (100,000 g supernatant)
Excerpt: Fresh liver tissues samples (5–30 g) were collected promptly after death from healthy adult cat, dog and horse euthanized for reasons unrelated to this study, and whose bodies were given to science by the owners in line with federal regulations and protocol approved by the Institutional Animal Care and Use Committee at University of California Davis. Similarly, tissues from the other animals tested herein were collected from healthy animals immediately after being slaughter at the university abattoir. Because no animals were directly used or killed for this study, sample collections were exempted from approval by the Institutional Animal Care and Use Committee of the University of California Davis and Michigan State University. […] The tissues were flash-frozen in liquid nitrogen following removal, and then kept at −80°C until used. After thawing on ice, the samples were homogenized in chilled sodium phosphate buffer (20 mM pH 7.4) containing 5 mM EDTA, 1 mM DTT and 1 mM PMSF (tissue weight:buffer volume ratio 1:4). These homogenates were centrifuged at 100,000 g for 60 min at 4°C. […]
The IC50 values reported herein were determined using either a fluorescent based assay (CMNPC as substrate) for purified enzyme preparations or a radioactive based assay ([^3H]t-DPPO as substrate) for crude enzyme preparations ([20]). […]

| SMILES | Cat sEH Inhibition (%) S. [1] | Solubility ([2]; PEG300, 30°C) | Solubility ([2]; Phosphate Buffer (0.1 M pH 7.4), 30°C) | solubility at 24 h ([2]; aqueous buffer, Phosphate Buffer (0.1 M pH 7.4), read-out: Solubility) | solubility at 24 h ([2]; oil or lipid, Oleic rich oil, read-out: Solubility) | solubility at 24 h ([2]; organic solvent or mixture, Carbitol, read-out: Solubility) | solubility at 24 h ([2]; organic solvent or mixture, Carbitol, read-out: Solubility in mg/mL) | Cat sEH Inhibition (%) P. [3] | Horse sEH Inhibition (%) P. [4] | Dog sEH Inhibition (%) P. [5] | Horse sEH Inhibition (%) S. [6] | IC50 [7] | Dog sEH Inhibition (%) S. [8] | IC50 [9] |
| --- | --- | --- | --- | --- | --- | --- | --- | --- | --- | --- | --- | --- | --- | --- |
| O=C(Nc1ccc(OC(F)(F)F)cc1)N[C@H]1CC[C@H](Oc2ccc(C(=O)O)cc2)CC1 [1,728, trans-4-{4-[3-(4-trifluoromethoxy-phenyl)-ureido]-cyclohexyloxy}-benzoic acid] | 100% | 222000 µM | 0.005 mg/mL | 22 µM | 220 µM | 114000 µM | 50 mg/mL | 95% | 107% | 90% | 89% | 0.4 ± 0.01 nM | 81% | – |
| O=C(O)CCCCCCCCCCCNC(=O)NC12CC3CC(CC(C3)C1)C2 [compound 700] | 99% | – | – | – | – | – | – | 94% | – | – | – | – | – | 11 nM |
